This is a sample that favours compounds with a hit; in the whole collection about 1% have one here.
KinaseGlo FLuc: blocks Kinase-Glo luciferase, a counter-screen artifact; hit rate 0.28% among 200,000; Q27757; Kinase-Glo luciferase, ATP luminescence, 8 min; Potency, µM (doses to about 38.3 µM), for the others: at the highest dose activity change, negative = inhibition, actives largely listed as inhibitors; also: potency is read from the fitted curve at half-maximal effect; % is scaled to controls: 0 for no effect and ±100 for the full control effect; nearly all actives have a fitted effect of over 60% in size
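Substrate mix (final 50 mM imidazole pH 7.2, 50 mM KCl, 7 mM MgCl2, 10 uM ATP, 0.01% Tween 20, 0.05% BSA) plus pin-tool compound, then Kinase-Glo detection mix; 8 min ambient, luminescence read.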
gsp antag: antagonists of gsp mutant (McCune-Albright syndrome); hit rate 0.4% among 340,000; AID 624288; Potency, µM (series often up to 76.9 µM), inactives show at the top dose activity change, negative = inhibition, most hits filed as inhibitors; gsp-mutant cells, cAMP HTRF, 30 min; calls by dose curve; cell line not stated here;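 also: intracellular cAMP measured with PDE inhibitor Ro 20-1724 present during compound exposure; potency is read from the fitted curve at half-maximal effect; % is scaled to controls: 0 for no effect and ±100 for the full control effect; nearly all actives have a fitted effect of over 65% in size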
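Cells, 2000/well, grown 16–24 h in DMEM 10% FBS with 0.5 mg/ml G418, then compounds plus […] (300 uM addition stock), 30 min at 37C. cAMP read by HTRF (cAMP-d2 and anti-cAMP antibody-K in lysis buffer) after 30 min RT.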
gsp ag: agonists of gsp mutant (McCune-Albright syndrome) | gsp mutant cells, cAMP HTRF, 30 min | Potency, µM (doses to about 76.9 µM), without a hit: at the top dose activation (cAMP increase), actives largely listed as activators | hit rate 0.13% among 340,000 | AID 624287; active = well fitted activation curve with a large enough effect; inconclusive = small, poorly fitted or top-dose-only effect, or another doubt; inactive = no such curve, though single readings can be large or run the other way; cell line not stated here;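 also: phosphodiesterase inhibitor Ro 20-1724 added with compounds to block cAMP breakdown; potency is read from the fitted curve at half-maximal effect; nearly all actives have a fitted effect of over 60% in size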
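Cells stably selected in G418 were plated at 2000/well, grown 16-24 hr, then given compounds in DMSO with the PDE inhibitor […] (300 uM solution added) for 30 min at 37C; cAMP was read by HTRF.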
miR-21 FLuc: miR-21 reporter, rising signal | HeLa miR-21 FLuc reporter, luciferase, 48 h | Potency, µM (top dose mostly 38.3 µM), inactives show at the top dose reporter change, positive = more light | 340,000 tested, under 10 active | AID 2288; active = well fitted rising curve with a large enough effect; inconclusive = small, poorly fitted or top-dose-only effect; inactive = no such curve, though single readings can be large or run the other way;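 further: % of control where 0% means no effect; miR-21 action dims this reporter so a rising signal means less miR-21 action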
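Using DMEM plus 10% FBS, HeLa miR-21-FLuc cells are incubated with test compounds (final up to about 40uM) for 48 hours; firefly luciferase signal is then imaged following reagent-mediated lysis.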
RXFP1 ag: RXFP1 (human) receptor agonism | hit rate 0.3% among 370,000 | HEK293T-RXFP1 cAMP TR-FRET, 30 min; response scale: percent of porcine relaxin response, buffer zero | Potency, µM (series often up to 57.5 µM), for inactives: at the highest dose activation, most hits filed as activators; also: potency is read from the fitted curve at half-maximal effect; % is scaled to controls: 0 for no effect and ±100 for the full control effect; nearly all actives have a fitted effect of over 60% in size
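cAMP rise read by TR-FRET after 30 min, 37C compound exposure (up to 58 uM) in RXFP1-transfected HEK293 cells with Ro 20174 present. EC50 from Hill-equation fits, with 29 nM porcine relaxin as 100% and buffer as basal.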
RXFP1 antag: RXFP1 (human) relaxin receptor antagonism. HEK293-RXFP1, relaxin-stimulated cAMP HTRF, 30 min; hits give low values. hit rate 0.59% among 350,000. activity change, negative = inhibition, % at 57.5 µM. Q9HBX9;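 active = activity change of -60% or lower, but not beyond a set lower limit; inconclusive = change between -60% and -40%, or beyond the set limit; inactive = change above -40%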; also: % is scaled to controls: 0 for no effect and ±100 for the full control effect
Active calls of the source: *; [ ] = another dose, or the depositor's remark. Unless noted, calls follow the shape of the dose curve; as a rule, active = well fitted curve in the direction sought with a large enough effect; inconclusive = small, poorly fitted or top-dose-only effect, or another doubt; inactive = no such curve, though single readings can be large; an effect the other way counts as inactive or inconclusive.

Results for COc1ccccc1OCC(=O)c1[nH]c(C)c(C(C)=O)c1C ?
KinaseGlo FLuc: -6%; gsp antag: 25µM*; gsp ag: 2%; miR-21 FLuc: 18%; RXFP1 ag: -3%; RXFP1 antag: -15

How did CC(C)(C)c1ccc(C(=O)Nc2cc(-c3nc4ccccc4o3)ccc2Cl)cc1 do in these assays?
miR-21 FLuc: -10%; RXFP1 ag: 5%; RXFP1 antag: -5

What do the screens show for `CCS(=O)(=O)c1nc(S(=O)(=O)c2ccc(Cl)cc2)c(N2CCCC2)s1`?
gsp antag: -15%; gsp ag: 13µM*; miR-21 FLuc: -1%; RXFP1 ag: inconclusive; RXFP1 antag: -4

How did CCS(=O)(=O)c1nc(S(=O)(=O)c2ccc(Cl)cc2)c(N2CCN(C)CC2)s1 do in these assays?
gsp antag: 10%; gsp ag: inconclusive; miR-21 FLuc: 12%; RXFP1 ag: -1%; RXFP1 antag: 22

How did CCS(=O)(=O)c1nc(S(=O)(=O)c2ccc(C)cc2)c(N2CCN(C)CC2)s1 do in these assays?
gsp antag: -3%; gsp ag: inconclusive; miR-21 FLuc: 9%; RXFP1 ag: 25µM*; RXFP1 antag: 6

Results for CCS(=O)(=O)c1nc(S(=O)(=O)c2ccc(C)cc2)c(N2CCOCC2)s1 ?
gsp antag: 3%; gsp ag: inconclusive; miR-21 FLuc: 10%; RXFP1 ag: 22%; RXFP1 antag: 8

Results for c1ccc(-c2cn3c(n2)-c2ccccc2C3)cc1 ?
KinaseGlo FLuc: 7.1µM*; gsp antag: 2%; gsp ag: -14%; miR-21 FLuc: 2%; RXFP1 ag: -1%

Results for O=C1c2ccccc2CN2C(=O)c3ccccc3CN12 ?
gsp antag: 10%; gsp ag: 4%; miR-21 FLuc: -2%; RXFP1 ag: 3%; RXFP1 antag: -7

What do the screens show for `CCOC(=O)N1CCN(C(=O)c2cc3c(s2)-c2ccccc2OC3)CC1`?
KinaseGlo FLuc: -4%; gsp antag: -6%; gsp ag: 14%; miR-21 FLuc: -19%; RXFP1 ag: inconclusive

How did CCCN1CCN(C(=O)c2ccccc2-c2nc3ccccc3s2)CC1 do in these assays?
KinaseGlo FLuc: 0%; gsp antag: 11µM*; gsp ag: -9%[15.4 µM]; miR-21 FLuc: 3%; RXFP1 ag: 1%; RXFP1 antag: 0

Arranged by heavy-atom count (low to high): three of the compounds above.
Results for O=C1c2ccccc2CN2C(=O)c3ccccc3CN12 ?
gsp antag: 10%; gsp ag: 4%; miR-21 FLuc: -2%; RXFP1 ag: 3%; RXFP1 antag: -7

Results for CCS(=O)(=O)c1nc(S(=O)(=O)c2ccc(C)cc2)c(N2CCOCC2)s1 ?
gsp antag: 3%; gsp ag: inconclusive; miR-21 FLuc: 10%; RXFP1 ag: 22%; RXFP1 antag: 8

How did CC(C)(C)c1ccc(C(=O)Nc2cc(-c3nc4ccccc4o3)ccc2Cl)cc1 do in these assays?
miR-21 FLuc: -10%; RXFP1 ag: 5%; RXFP1 antag: -5

More records:
Results for CCCN1CCN(C(=O)c2cc3c(s2)-c2ccccc2OC3)CC1 ?
gsp antag: 12%; gsp ag: 21%; miR-21 FLuc: -46%; RXFP1 ag: 18µM*

What do the screens show for `CC(=O)Nc1cc(C(=O)NCc2ccccc2)ccc1Sc1ccc(C)cc1`?
miR-21 FLuc: -1%; RXFP1 ag: 8%; RXFP1 antag: -18

Results for O=C(Nc1ccc(-c2nc3ccccc3[nH]2)cc1)C1CCCO1 (stereo not drawn) ?
KinaseGlo FLuc: 4µM*; gsp antag: -1%; gsp ag: -3%; miR-21 FLuc: 16%; RXFP1 ag: -1%; RXFP1 antag: -3

What do the screens show for `Cc1cc(C)nc(NN2C(=O)/C(=C/c3ccc(O)cc3)SC2=S)n1`?
KinaseGlo FLuc: 1%; gsp antag: inconclusive; gsp ag: 18%; miR-21 FLuc: -6%; RXFP1 ag: 1%; RXFP1 antag: -116*

What do the screens show for `O=c1c2sccc2nc(SCc2cc(=O)n3cc(Br)ccc3n2)n1Cc1ccccn1`?
KinaseGlo FLuc: -1%; gsp antag: 6%; gsp ag: 25%[15.4 µM]; miR-21 FLuc: -18%; RXFP1 ag: 25µM*; RXFP1 antag: 12

How did Cc1ccc(CSc2nc3ccsc3c(=O)n2Cc2ccccn2)cc1 do in these assays?
KinaseGlo FLuc: -1%; gsp antag: -17%; gsp ag: -47%; miR-21 FLuc: -23%; RXFP1 ag: 0%; RXFP1 antag: 3

What do the screens show for `O=C(C1CCCCC1)N1CCN(c2ccnc3cc(Cl)ccc23)CC1`?
gsp antag: 35µM*; gsp ag: 4%[15.4 µM]; miR-21 FLuc: inconclusive; RXFP1 ag: 1%; RXFP1 antag: -4
